Biological target: Trx-6×His-BCL6 (human BCL6 BTB domain covering amino-acid sequence 5-129) (Homo sapiens, UniProt P41182)
Assay: HTRF assay (BCL6 / BCOR peptide)
Conditions: 1 nM Trx-6×His-BCL6, 300 nM BCOR-AF633 peptide, 2 hours incubation at room temperature; tested form: 1:1 mixture of the (1R,5R) and (1S,5S) a

`Cn1c(=O)c2c(c3cc(Nc4nc(N5CC6(C)CC6(CO)C5)ncc4Cl)ccc31)N[C@@H](C1CC1)C(F)(F)CO2` (stereo partly shown) was tested, and the “HTRF avg pIC50” value was 8.26.
